The test deals with RPE-Neo or RPE-MYC or RPE-MYC expressing an EGFP-Histone 2B fusion protein. As to the kind of experiment: Phenotypic screening assay (arrest in mitosis, change in DNA content, cell death; GE IN-Cell Analyzer 2000). It counts as cell-based, Human. The settings on record: min. effective conc.; compounds 20 nM to 20 μM; 24, 48 or 72 hours.

Regarding `COC(=O)C1=C(O)c2ccccc2N(Cc2ccccc2)C(=O)C1` [Example 1, Methyl 1-benzyl-5-hydroxy-2-oxo-2,3-dihydro-1H-benzo[b]azepine-4-carboxylate], the “Cell Death (>30%)” value was “D (greater than 30.0 μM and less than 1000 μM)”.

As for `CNC(=O)C1=C(O)c2ccccc2N(Cc2ccccc2)C(=O)C1` [Example 72, 1-benzyl-5-hydroxy-N-methyl-2-oxo-2,3-dihydro-1H-benzo[b]azepine-4-carboxamide], the “Cell Death (>30%)” value was “D (greater than 30.0 μM and less than 1000 μM)”.

Source of the values: patent US20240270695A1, “COMPOUNDS, COMPOSITIONS AND METHODS OF TREATING DISORDERS” (Chengdu Anticancer Bioscience LTD, priority 2021, published 2024).
